Source: patent US20230266321A1, “LIVE CELL ENGAGEMENT ASSAY” (Icahn School of Medicine at Mount Sinai, priority 2020, published 2023)

Chains of the proteins cited; added tags and fusions are not shown.
UniProt Q02750, whole entry: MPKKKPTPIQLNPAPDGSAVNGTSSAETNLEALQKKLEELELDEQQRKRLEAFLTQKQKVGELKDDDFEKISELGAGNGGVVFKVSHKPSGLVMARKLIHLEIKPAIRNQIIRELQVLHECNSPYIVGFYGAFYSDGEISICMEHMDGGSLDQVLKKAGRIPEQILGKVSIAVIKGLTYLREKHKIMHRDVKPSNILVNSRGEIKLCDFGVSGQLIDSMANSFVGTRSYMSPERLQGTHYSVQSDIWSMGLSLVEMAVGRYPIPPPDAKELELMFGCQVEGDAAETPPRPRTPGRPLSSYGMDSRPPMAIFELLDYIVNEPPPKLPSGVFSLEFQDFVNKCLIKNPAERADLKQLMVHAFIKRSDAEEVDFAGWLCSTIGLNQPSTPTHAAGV

Molecular target: MEK-NL (Homo sapiens, UniProt Q02750)
Test: Tracer buildup curves on MEK-NLuc (NanoBRET)
Assay type: cell-based

O=C(CCC1=[N+]2C(=Cc3ccc(-c4ccc[nH]4)n3[B-]2(F)F)C=C1)NCCOCCOCCOCCONC(=O)c1ccc(F)c(F)c1Nc1ccc(I)cc1F
EC50 (read-out: binding affinity to MEK-NL (tracer buildup curves), HEK293T cells, 2 hrs at 37° C.): 350 nM
weaker binding affinity to MEK-NL compared to Tram-bo (tracer buildup curves): ~ 70 fold
